# Laboratory results published in publication PMC9504842, “Comprehensive Metabolic Profiling of Euphorbiasteroid in Rats by Integrating UPLC-Q/TOF-MS and NMR as Well as Microbial Biotransformation” (Metabolites, 2022).
# Experiment: Metabolite detection in rats (plasma, urine, feces) after oral euphorbiasteroid by UPLC-Q/TOF-MS
# Format: in vivo, Sprague-Dawley rats
# Conditions: single oral dose 100 mg/kg euphorbiasteroid
# Protocol: For metabolite separation and detection, chromatographic analyses were performed using a Waters Acquity UPLC I-class system (Waters, Milford, MA, USA), equipped with an auto-sampler, a binary solvent delivery system, an online degasser, and a photodiode array detector. An ACQUITY UPLC® HSS T3 column (2.1 × 150 mm, 1.8 μm, Waters) protected with a HSS T3 VanGuard ™ Pre-Column 3/Pk (2.1 × 5.0 mm, 1.8 μm, Waters) was used. The optimized parameters were set as follows: the mobile phase consisted of eluent A (0.1% formic acid in water, v/v) and eluent B (acetonitrile). The flow rate was 0.3 mL/min. The column and auto-sampler temperatures were maintained at 40 °C and 4 °C, respectively. The gradient elution program was optimized as follows: 0–9 min, 30–70% B; 9–13 min, 70–90% B; 13–17 min, 90–100% B; 17–20 min, 100–100% B.
# The mass spectrometry detection was performed on the SYNAPT G2-Si HDMS system, equipped with an electrospray ionization (ESI) source (Waters Corp., Manchester, UK). A positive ion mode was conducted in this analysis. Mass spectrometry conditions were finally set as follows: capillary voltage of 3.0 kV, cone voltage of 40 V, source temperature of 120 °C, and de-solvation temperature of 400 °C. Nitrogen was used as the desolvation and cone gas with a flow rate of 800 and 50 L/h, respectively, and the full-scan mass range was set as m/z 50–1500 Da. […]
substance,measurement,setting,value
euphorbiasteroid 2′-O-β-D-glucopyranoside [Compound M29],Distribution Rat Faeces (metabolite detected),rat faeces,√
same,Distribution Rat Plasma (metabolite detected),rat plasma,√
